Biological target: Syk catalytic domain (aa 356-635 with a C-terminal His-tag) (Homo sapiens, UniProt P43405)
Experiment: In vitro Syk kinase activity measured by trFRET, Syk catalytic domain
Details: read-out: Syk IC50
Experimental: In Vitro Syk Kinase Activity Measured by Time-Resolved Fluorescence Resonance Energy Transfer (trFRET)
0.14 nM purified Syk catalytic domain (aa 356-635 with a C-terminal His-tag purified in-house by immobilized metal ion affinity chromatography) was mixed with 0.2 μM peptide substrate (biotin-TYR1, Sequence: Biotin-(Ahx)-GAEEEIYAAFFA-COOH) at varying inhibitor concentrations in reaction buffer: 50 mM MOPSO pH 6.5, 10 mM MgCl2, 2 mM MnCl2, 2.5 mM DTT, 0.01% BSA, 0.1 mM Na3VO4 and 0.001 mM ATP. After about 60 min incubation at rt, the reaction was quenched by addition of EDTA (final concentration: 100 mM) and developed by addition of revelation reagents (final approximate concentrations: 30 mM HEPES pH 7.0, 0.06% BSA, 0.006% Tween-20, 0.24 M KF, 80 ng/mL PT66K (europium labeled anti-phosphotyrosine antibody cat #61T66KLB Cisbio, Bedford, Mass.) and 0.6 μg/mL SAXL (Phycolink streptavidin-allophycocyanin acceptor, cat #PJ255, Prozyme, San Leandro, Calif.). The developed reaction was incubated in the dark either at about 4° C. for about 14 h or for about 60 min at rt, then read via a time-resolved fluorescence detector (Rubystar, BMG) using a 337 nm laser for excitation and monitoring emission wavelengths at 665 nm. Within the linear range of the assay, the observed signal at 665 nm was directly related to phosphorylated product and can be used to calculate the IC50 values. […]

With `COc1ccc2c(c1)c(-c1cc3c(ncc4cnc(C(C)(C)O)n43)[nH]1)cn2C` the IC50 was less than 100 nM.

Reference: patent US20140349970A1 (ABBVIE INC., priority 2009, published 2014)
